# System: Synechococcus sp. HPPD "SEQ ID No. 5"
# Assay: HPPD activity in presence of HPPD inhibitors (pI50, % inhibition)
# Assay type: biochemical
# Conditions: 2 mM HPP, 3 minutes incubation
# Description: In this content, pI50-value means the log value of the concentration of inhibitor necessary to inhibit 50% of the enzyme activity in molar concentration.
smiles,measurement,value
"CS(=O)(=O)c1ccc(C(=O)C2C(=O)CCCC2=O)c(Cl)c1 [Sulcotrione, 2-[2-chloro-4-(methylsulfonyl)benzoyl]-1,3-cyclohexanedione]",pI50,4.8

# From US20150159167A1, “Plants Tolerant to HPPD Inhibitor Herbicides” (Bayer CropScience AG, priority 2009, published 2015)
